# pIC50: −log10 of the molar value.
# Protein sequences, listed by entry. Tags and fused reporters are not part of them.
# UniProt Q16539, whole entry: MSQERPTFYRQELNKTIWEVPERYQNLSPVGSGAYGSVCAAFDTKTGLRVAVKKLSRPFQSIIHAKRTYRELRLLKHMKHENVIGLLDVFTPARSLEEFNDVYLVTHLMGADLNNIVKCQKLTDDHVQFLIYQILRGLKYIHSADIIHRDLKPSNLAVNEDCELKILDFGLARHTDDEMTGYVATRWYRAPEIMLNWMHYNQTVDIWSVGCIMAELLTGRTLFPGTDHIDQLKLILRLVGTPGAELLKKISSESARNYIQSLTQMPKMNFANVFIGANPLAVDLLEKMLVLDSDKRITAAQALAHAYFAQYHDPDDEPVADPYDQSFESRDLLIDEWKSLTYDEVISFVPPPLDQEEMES
# Molecular target: T1, phospho p-38 alpha kinase (Homo sapiens, UniProt Q16539)
# T1 construct: purchased Panvera
# Experiment: P-38 alpha kinase assay (spectrophotometric, pyruvate kinase/lactate dehydrogenase coupled)
# Assay type: biochemical
# Conditions: Table 2; rates from […] to 2 h time frame
# Description: In this assay, the oxidation of NADH was continuously measured spectrophometrically. […] The reaction was initiated by adding ATP. The absorption at 340 nm was monitored continuously for up to 4 hours at 30° C. on Polarstar Optima plate reader (BMG). The kinase activity (reaction rate) was calculated from the slope at the time frame from 1.5 h to 2 h.
# For inhibition determinations, test compounds were incubated with the reaction mixture for ˜5 min before adding ATP to start the reaction. […] IC50 values were calculated from a series of % inhibition values determined at a range of concentrations of each inhibitor using Prism to process the data and fit inhibition curves. Generally, the rates obtained at the time frame of 1.5 h to 2 h were used for these calculations.
row,Compound,pIC50
1,"COC(=O)c1ccc(-n2nc(C(C)(C)C)cc2NC(=O)Nc2ccc(Br)cc2)cc1 [Example 59, methyl 4-{3-tert-butyl-5-[3-(4-bromophenyl)ureido]-1H-pyrazol-1-yl}benzoate]",6.15
2,"CC(C)(C)c1cc(NC(=O)Nc2cccc3ccccc23)n(-c2cccc(OS(=O)(=O)NC(=O)N3CCCC3)c2)n1 [Example 49, (pyrrolidine-1-carbonyl)sulfamic acid 3-[3-tert-butyl-5-(3-naphthalen-1-yl-ureido)-pyrazol-1-yl]phenyl ester]",7.15
3,COc1ccc(-n2nc(C(C)(C)C)cc2NC(=O)Nc2ccc(OC)c3ccccc23)cc1 [Example 51],7.48
4,"COc1cccc(-n2nc(C(C)(C)C)cc2NC(=O)Nc2cccc3ccccc23)c1 [Example 39, 1-[3-tert-butyl-1-(3-methoxyphenyl)-1H-pyrazol-5-yl]-3-(naphthalen-1-yl)urea]",7.92
5,"CC(C)(C)c1cc(NC(=O)Nc2ccc(Br)cc2)n(-c2ccc(O)cc2)n1 [Example 55, 1-{3-tert-butyl-1-(4-hydroxyphenyl)-1H-pyrazol-5-yl}-3-(4-bromophenyl)urea]",6.13
6,"COc1ccc(-n2nc(C(C)(C)C)cc2NC(=O)Nc2ccc(Br)cc2)cc1 [Example 52, 1-{3-tert-butyl-1-(4-methoxyphenyl)-1H-pyrazol-5-yl}-3-(4-bromophenyl)urea]",6.38
7,"COC(=O)c1ccc(-n2nc(C(C)(C)C)cc2NC(=O)Nc2ccc(OC)c3ccccc23)cc1 [Example 58, methyl 4-{3-tert-butyl-5-[3-(1-methoxynaphthalen-4-yl)ureido]-1H-pyrazol-1-yl}benzoate]",6.76

# Same assay, conditions: Table 3; rates from […] to 2 h time frame
row,Compound,pIC50
1,"CC(C)(C)c1cc(NC(=O)Nc2ccc(Cl)cc2)n(-c2cccc(C(C)(C)O)c2)n1 [Example 197, 1-{5-t-butyl-2-[3-(1-hydroxy-1-methyl-ethyl)-phenyl]-2H-pyrazol-3-yl}-3-(4-chloro-phenyl)-urea]",6.61
2,"CC(C)(C)c1cc(NC(=O)Nc2cccc3ccccc23)n(-c2cccc(C(C)(C)O)c2)n1 [Example 196, 1-{5-t-butyl-2-[3-(1-hydroxy-1-methyl-ethyl)-phenyl]-2H-pyrazol-3-yl)-3-naphthalen-1-yl-urea]",7.55
3,"CCOC(=O)CCc1cccc(-n2nc(C(C)(C)C)cc2NC(=O)Nc2cccc3ccccc23)c1 [Example 297, ethyl 3-(3-(3-tert-butyl-5-(3-(naphthalen-1-yl)ureido)-1H-pyrazol-1-yl)phenyl)propanoate]",6.47
4,"CC(C)(C)c1cc(NC(=O)Nc2ccc(F)cc2)n(-c2cccc(CN3CC(=O)NS3(=O)=O)c2)n1 [Example 162, 1-{5-t-butyl-2-[3-(3-(R)-methyl-1,1,4-trioxo-1λ^6-[1,2,5]thiadiazolidin-2-ylmethyl)-phenyl]-2H-pyrazol-3-yl}-3-naphthalen-1-yl-urea]",6.19
5,"CCOC(=O)CCc1ccc(-n2nc(C(C)(C)C)cc2NC(=O)Nc2ccc(Cl)cc2)cc1 [Example 294, ethyl 3-(4-(3-tert-butyl-5-(3-(4-chlorophenyl)ureido)-1H-pyrazol-1-yl)phenyl)propanoate]",5.68
6,"CC(Cc1cccc(-n2nc(C(C)(C)C)cc2NC(=O)Nc2ccc(Cl)cc2)c1)C(=O)O (racemic) [Example 203, 3-(3-{3-t-butyl-5-[3-(4-chloro-phenyl)-ureido]-pyrazol-1-yl}-phenyl)-2-methyl-propionic acid]",6.48
7,"CC(C)(C)c1cc(NC(=O)Nc2cccc3ccccc23)n(-c2ccc(C(C)(C)O)cc2)n1 [Example 198, 1-{5-t-butyl-2-[4-(1-hydroxy-1-methyl-ethyl)-phenyl]-2H-pyrazol-3-yl}-3-naphthalen-1-yl-urea]",6.86
8,"CC(C)(C)c1cc(NC(=O)Nc2c(Cl)cccc2Cl)n(-c2cccc(CCC(=O)O)c2)n1 [Example 291, 3-(3-(3-t-butyl-5-(3-(2,6-dichlorophenyl)ureido)-1H-pyrazol-1-yl)phenyl)propanoic acid]",5.29
9,"CN1CCN(CCCOc2cccc(-n3nc(C(C)(C)C)cc3NC(=O)Nc3cccc4ccccc34)c2)CC1 [Example 163, 1-(5-t-Butyl-2-{3-{3-(4-methyl-piperazin-1-yl)-propoxy]-phenyl}-2H-pyrazol-3-yl)-3-naphthalen-1-yl-urea]",6.33
10,"CCOC(=O)C(C)Cc1cccc(-n2nc(C(C)(C)C)cc2NC(=O)Nc2ccc(Cl)cc2)c1 (racemic) [Example 202, 3-(3-{3-t-butyl-5-[3-(4-chloro-phenyl)-ureido]-pyrazol-1-yl}-phenyl)-2-methyl-propionic acid ethyl ester]",5.72
11,"CCOC(=O)CCc1cccc(-n2nc(C(C)(C)C)cc2NC(=O)Nc2ccc(Cl)cc2)c1 [Example 295, ethyl 3-(3-(3-tert-butyl-5-(3-(4-chlorophenyl)ureido)-1H-pyrazol-1-yl)phenyl)propanoate]",5.92
12,"CC(C)(C)c1cc(NC(=O)Nc2ccc(Cl)cc2)n(-c2cccc(CCN3CCOCC3)c2)n1 [Example 301, 1-{3-tert-butyl-1-[3-(2-morpholinoethyl)phenyl]-1H-pyrazol-5-yl}-3-(4-chlorophenyl)urea]",6.20
13,"CC(C)(C)c1cc(NC(=O)Nc2cccc3ccccc23)n(-c2cccc(CN3CC(=O)NS3(=O)=O)c2)n1 [Example 287, 1-(5-t-butyl-2-{3-[5-1,1,4-trioxo-1λ^6-[1,2,5]thiadia-zolidin-2-ylmethyl]-phenyl}-2H-pyrazol-3-yl)-1-naphthylurea]",7.39
14,CC(C)(C)c1cc(NC(=O)c2ccc3ccccc3c2)n(-c2cccc(CN3CC(=O)NS3(=O)=O)c2)n1 [Example 234],4.96
15,"CC(C)(C)c1cc(NC(=O)Nc2cccc3ccccc23)n(-c2cccc(Cn3c(=O)sn(-c4ccccc4)c3=O)c2)n1 [Example 286, 1-(3-t-butyl-1-(3-((3,5-dioxo-2-phenyl-1,2,4-thiadiazolidin-4-yl)methyl)phenyl)-1H-pyrazol-5-yl)-3-(naphthalen-1-yl)urea]",7.10
16,"CC(C)(C)c1cc(NC(=O)Nc2ccccc2F)n(-c2cccc(C#N)c2)n1 [Example 354, 1-[3-t-butyl-1-(3-cyanophenyl)-1H-pyrazol-5-yl]-3-(2-fluorophenyl)urea]",6.96
17,"CC(C)(C)c1cc(NC(=O)Nc2ccc(Cl)cc2)n(-c2ccc(C(C)(C)O)cc2)n1 [Example 199, 1-{5-t-butyl-2-[4-(1-hydroxy-1-methyl-ethyl)-phenyl]-2H-pyrazol-3-yl}-3-(4-chloro-phenyl)-urea]",6.16
18,"CC(C)(C)c1cc(NC(=O)Nc2cccc3ccccc23)n(-c2ccc(C(O)C(F)(F)F)cc2)n1 (centres unmarked) [Example 206, 1-{5-t-Butyl-2-[4-(2,2,2-trifluoro-1-hydroxy-ethyl)-phenyl]-2H-pyrazol-3-yl}-3-naphthalen-1-yl-urea]",7.89
19,"CC(C)(C)c1cc(NC(=O)Nc2cccc3ccccc23)n(-c2cccc(C(=O)O)c2)n1 [Example 285, 3-(3-t-butyl-5-(3-(naphthalen-1-yl)ureido)-1H-pyrazol-1-yl)benzoic acid]",6.99

# Reference: patent US20070191336A1 (priority 2003, published 2007)
